Measured affinities in a library of Ab-14 heavy chain variants

The target is the same throughout: PDVDLGDISGINAS, from the HR2 region of SARS-CoV-2 spike.

Each scFv is VH, the linker GGGGSGGGGSGGGGS, VL, as in the parent Ab-14, and differs from it in the CDRs of the heavy chain only.
VH: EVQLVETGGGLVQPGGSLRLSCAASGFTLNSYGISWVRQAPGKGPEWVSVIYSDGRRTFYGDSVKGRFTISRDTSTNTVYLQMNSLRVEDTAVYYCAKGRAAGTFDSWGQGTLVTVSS
VL: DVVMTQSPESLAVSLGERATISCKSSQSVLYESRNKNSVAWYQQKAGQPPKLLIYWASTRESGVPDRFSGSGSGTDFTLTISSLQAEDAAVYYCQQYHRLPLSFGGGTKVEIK

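Phage display of a naive human antibody library on the peptide gave the parent. The variants were designed computationally from a first round of random CDR variants and then made and measured. Their group label is 14H_GPLM_Gen (GPLM: also part of the Gaussian process libraries; Gen: genetic algorithm; a sequence that several methods proposed may carry one label only). The scFvs were displayed on barcoded MATa yeast, the peptide on MATalpha yeast. Mating (16 h, 30 °C) was followed by selection of diploids and sequencing of their barcodes. A regression on co-assayed BCL2-family reference pairs converts the normalised counts of each replicate to an apparent Kd. Each pool was mated in six replicate cultures.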

Each variant is given by its three heavy chain CDRs, as the data file delimits them; those of the parent are GFTLNSYGIS, VIYSDGRRTFYGDSVK, GRAAGTFDS.
Numbers give log10(Kd / nM), so 0 is 1 nM and 3 is 1 µM. Smaller is tighter.
A pair that was not seen in that replicate is written "nd"; this usually means weak binding, but a binder can also be missed.
The range of this assay differs from that of the first round, and the authors advise against merging the two.
Background: pairings of all heavy chain designs with three empty control strains gave a value in 1% of cases (median 2.08, 5th percentile 0.84). Values in that range, when seen in few replicates, are hard to tell from nonspecific mating. For each scFv, signals with the empty controls are counted beside the result, with their mean in brackets.
The authors' rule: three or more of the six replicates give a measured affinity, fewer mean a poor binder.

{"CDR-H1": "GFDLNSYGIS", "CDR-H2": "VIYSDGRRTFYKDSVK", "CDR-H3": "GQAAGTFDS", "log10 Kd, replicates": "0.41 / 0.24 / 0.34 / 0.09 / 0.02 / 0.35", "signal with controls": "0 of 18"}
{"CDR-H1": "YFTLNSYGIS", "CDR-H2": "VIYADGRRTFYGDSVK", "CDR-H3": "GKAAGTFDS", "log10 Kd, replicates": "nd / nd / nd / 0.61 / nd / nd", "signal with controls": "0 of 18"}
{"CDR-H1": "GFTLNDYGIS", "CDR-H2": "VIYSDGRRTFYADSVK", "CDR-H3": "GRAAGTFVS", "log10 Kd, replicates": "0.53 / nd / 0.68 / nd / 2.34 / 0.71", "signal with controls": "0 of 18"}
{"CDR-H1": "GFVLNNYGIS", "CDR-H2": "VIYSDGRRTFYGDSVK", "CDR-H3": "GQAAGTFDS", "log10 Kd, replicates": "1.67 / 4.05 / 0.53 / 0.68 / 0.71 / 1.66", "signal with controls": "0 of 18"}
{"CDR-H1": "GFTLESYGIS", "CDR-H2": "VIYADGRRTFYGDSVK", "CDR-H3": "GQAAGTFDS", "log10 Kd, replicates": "-0.39 / -0.24 / -0.37 / -0.49 / -0.50 / -0.53", "signal with controls": "0 of 18"}
{"CDR-H1": "GFSLNSYGIS", "CDR-H2": "VIYSDGRRTFYADSVK", "CDR-H3": "GDVAGTFDS", "log10 Kd, replicates": "0.30 / 0.11 / -0.15 / 0.00 / -0.09 / 0.29", "signal with controls": "0 of 18"}
{"CDR-H1": "GFSLNEYGIS", "CDR-H2": "VIYSDGRRTFYGDSVK", "CDR-H3": "GRCAGTFDS", "log10 Kd, replicates": "0.91 / nd / 1.34 / 2.42 / 0.98 / nd", "signal with controls": "0 of 18"}
{"CDR-H1": "KFTLNSYGIS", "CDR-H2": "VIYSDGRRTFYADSVK", "CDR-H3": "GQTAGTFDS", "log10 Kd, replicates": "1.16 / 0.26 / 1.12 / 0.99 / 0.35 / 0.96", "signal with controls": "1 of 18 (3.89)"}
{"CDR-H1": "GFDLNSYGIS", "CDR-H2": "VIYSDGRRTFYGDSVK", "CDR-H3": "GRRAGTFDS", "log10 Kd, replicates": "nd / nd / nd / nd / nd / nd", "signal with controls": "0 of 18"}
{"CDR-H1": "GFTLESYGIS", "CDR-H2": "VIYSDGRRTFYKDSVK", "CDR-H3": "GRAAGTFDS", "log10 Kd, replicates": "0.85 / 1.11 / 1.47 / nd / nd / 1.33", "signal with controls": "0 of 18"}
{"CDR-H1": "GFSLNEYGIS", "CDR-H2": "VIYSDGRRTFYADSVK", "CDR-H3": "GRAAGKFDS", "log10 Kd, replicates": "nd / nd / nd / nd / nd / nd", "signal with controls": "0 of 18"}
{"CDR-H1": "GFTLNEYGIS", "CDR-H2": "VIYSDGRRTFYGDSVK", "CDR-H3": "GRAAGTFDT", "log10 Kd, replicates": "0.15 / 0.35 / 0.25 / 0.01 / 0.11 / 0.70", "signal with controls": "0 of 18"}
{"CDR-H1": "GFSLNSYGIS", "CDR-H2": "VIYSDGRRTFYSDDVK", "CDR-H3": "GRTAGTFDS", "log10 Kd, replicates": "0.05 / 0.02 / -0.13 / -0.19 / -0.05 / -0.04", "signal with controls": "0 of 18"}
{"CDR-H1": "GFTLNSYGIS", "CDR-H2": "VIYSDGRRTFYKDSVK", "CDR-H3": "GQEAGTFDT", "log10 Kd, replicates": "nd / nd / nd / nd / nd / nd", "signal with controls": "0 of 18"}
{"CDR-H1": "GFVLNDYGIS", "CDR-H2": "VIYSDGRRTFYADSVK", "CDR-H3": "GRTAGTFDS", "log10 Kd, replicates": "-0.12 / 0.28 / 0.00 / -0.32 / 0.19 / 0.01", "signal with controls": "0 of 18"}
{"CDR-H1": "GFTLNSYGIS", "CDR-H2": "VIYSDGRRTFYGDSVK", "CDR-H3": "GREAGTFDV", "log10 Kd, replicates": "nd / nd / nd / nd / nd / nd", "signal with controls": "0 of 18"}
{"CDR-H1": "GFSLNEYGIS", "CDR-H2": "VIYSDGRRTFYGDSVK", "CDR-H3": "GTAAGTFDK", "log10 Kd, replicates": "0.05 / -0.26 / -0.33 / -0.33 / -0.17 / 0.19", "signal with controls": "0 of 18"}
{"CDR-H1": "GFSLNEYGIS", "CDR-H2": "VIYSDGRRTFYGDSVK", "CDR-H3": "GNAAGTFDT", "log10 Kd, replicates": "-0.23 / -0.23 / -0.57 / -0.93 / -1.09 / -0.81", "signal with controls": "0 of 18"}
{"CDR-H1": "GFNLNSYGIS", "CDR-H2": "VIYADGRRTFYGDSVK", "CDR-H3": "GQAAGTFDS", "log10 Kd, replicates": "-0.03 / -0.34 / -0.39 / -0.20 / -0.28 / -0.26", "signal with controls": "1 of 18 (1.71)"}
{"CDR-H1": "GFWLNDYGIS", "CDR-H2": "VIYSDGRRTFYADSVK", "CDR-H3": "GRTAGTFDS", "log10 Kd, replicates": "0.00 / 0.88 / 0.51 / 0.69 / 0.75 / 0.59", "signal with controls": "0 of 18"}
{"CDR-H1": "SFSLNSYGIS", "CDR-H2": "VIYSDGRRTFYADSVK", "CDR-H3": "GRTAGTFDS", "log10 Kd, replicates": "0.31 / 1.62 / 1.03 / 0.46 / 1.65 / 1.48", "signal with controls": "0 of 18"}
{"CDR-H1": "GFSLNSYGIS", "CDR-H2": "VIYSDGRRTFYADNVK", "CDR-H3": "GRNAGTFDS", "log10 Kd, replicates": "-0.01 / 0.49 / 0.05 / -0.16 / -0.16 / 0.02", "signal with controls": "1 of 18 (1.90)"}

Extract of 2 entries:

{"CDR-H1": "SFSLNSYGIS", "CDR-H2": "VIYSDGRRTFYADSVK", "CDR-H3": "GRTAGTFDS", "log10 Kd, replicates": "0.31 / 1.62 / 1.03 / 0.46 / 1.65 / 1.48", "signal with controls": "0 of 18"}
{"CDR-H1": "GFTLNSYGIS", "CDR-H2": "VIYSDGRRTFYGDSVK", "CDR-H3": "GREAGTFDV", "log10 Kd, replicates": "nd / nd / nd / nd / nd / nd", "signal with controls": "0 of 18"}

Reference: Li et al. 2023, doi:10.1038/s41467-023-39022-2. File: FLAb, binding data.